Test system: Gibberella moniliformis CD611
Test: Induction of nitroglycerin-degrading activity in Gibberella moniliformis CD611
Settings: 0.5 mM TNT, 0.5 mM NEM, 0.25 mM MD, 1 mM 3HC; 29 h

Row | SMILES | growth of G. moniliformis CD611 in the presence of the compound
1 | CC1=CC(=O)c2ccccc2C1=O | Growth was inhibited
2 | CCN1C(=O)C=CC1=O | Growth was inhibited
3 | O=c1oc2ccccc2cc1O | Growth was inhibited

Source: patent US9814918B2, “Microbial deactivation of explosive compositions” (dated 2017)
